Literature values in patent US20230372437A1, “COMPOSITIONS AND METHODS FOR THE TREATMENT OF HAIR LOSS AND OTHER CONDITIONS” (ProTransit Nanotherapy LLC, priority 2020, published 2023).

Test system: normal scalp
Conditions: topical

Topically applied minoxidil absorbed through a normal scalp: about 1.7%
Structure (SMILES): Nc1cc(N2CCCCC2)nc(N)[n+]1[O-] [minoxidil]
